Reference: US20220119489A1, “COMPOSITIONS AND METHODS FOR TREATING MUSCULAR DYSTROPHY AND RELATED DISORDERS” (CHILDREN'S MEDICAL CENTER CORPORATION, priority 2019, published 2022)

Assays:
[1] = target: CD82 (mouse) (mouse) (UniProt P40237); assay: IP with anti CD82 antibodies, mouse muscle tissue, mass spectrometry
[2] = target: CD82 polypeptide (human) (human); assay: IP with anti CD82 antibodies, human myotubes, mass spectrometry

| Total [1] | Unique [1] | Total [2] | Unique [2] | Substance |
| --- | --- | --- | --- | --- |
| 2 | 2 | – | – | ACTA_MOUSE (from UniProt P62737) |
| 2 | 2 | – | – | ACTS_MOUSE (from UniProt P68134) |
| 2 | 2 | – | – | H2B1K_MOUSE (from UniProt Q8CGP1) |
| – | – | 3 | 3 | euk elongation factor 2 (from UniProt P13639) |
